Biological target: human neuropeptide Y Y2 receptor, wildtype (P^34D^35) (Homo sapiens, UniProt P49146)
Assay: Competition binding of [^125I] PYY in particulates, wildtype Y2 receptor
Details: particulates from CHO cells expressing wildtype and mutated receptors (Table 1)

The chains behind the UniProt entries cited, without tags or fusion partners.
UniProt P49146, whole entry: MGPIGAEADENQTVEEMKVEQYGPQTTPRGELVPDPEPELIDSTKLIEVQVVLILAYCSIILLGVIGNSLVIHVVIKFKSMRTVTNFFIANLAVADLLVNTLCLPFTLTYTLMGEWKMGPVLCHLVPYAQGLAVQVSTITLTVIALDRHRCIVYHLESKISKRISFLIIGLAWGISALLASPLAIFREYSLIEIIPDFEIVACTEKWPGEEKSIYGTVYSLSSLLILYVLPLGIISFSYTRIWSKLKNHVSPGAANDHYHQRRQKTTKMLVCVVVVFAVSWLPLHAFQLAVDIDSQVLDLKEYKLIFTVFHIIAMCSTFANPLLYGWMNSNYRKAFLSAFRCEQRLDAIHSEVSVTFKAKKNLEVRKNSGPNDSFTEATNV

peptide YY(1–36): non-selective Y receptor agonist; the parent peptide of peptide YY(3–36)
affinities, wildtype and mutated receptors compared: quite similar
